According to publication PMC6222444, “Structural Basis for the Interaction between p53 Transactivation Domain and the Mediator Subunit MED25” (Molecules : A Journal of Synthetic Chemistry and Natural …, 2018):

How the values were obtained:
[1] = molecular target: T1, MED25 ACID (Homo sapiens, UniProt Q71SY5); experiment: NMR titration of 15N-labeled MED25 ACID with p53TAD and p53TAD1/p53TAD2 peptides (chemical shift perturbation); assay type: binding; conditions: molar ratio 1:1
T1 construct: Expression of the His6-fused MED25 ACID (residues 394–543) was induced at 18 °C; His6 (C); made in house; host or cells: Escherichia coli BL21(DE3)RIL
T1 sequence (Q71SY5 394-543): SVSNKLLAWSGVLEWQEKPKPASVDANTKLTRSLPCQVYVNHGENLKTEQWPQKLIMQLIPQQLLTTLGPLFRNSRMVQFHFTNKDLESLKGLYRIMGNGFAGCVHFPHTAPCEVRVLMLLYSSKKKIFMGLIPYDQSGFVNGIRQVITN
Source text: The human p53TAD (residues 1–73) and human MED25 ACID (residues 394–543) were cloned into the pGEX-4T vector (GE-healthcare, Chicago, IL, USA) containing an N-terminal glutathione-S-transferase (GST) tag and pET-21b vector (Novagen, Madison, WI, USA) containing a C-terminal His6 tag, respectively. The p53TAD1 (residues 15–29) and the wild-type and mutant p53TAD2 (residues 39–57) peptides were chemically synthesized and purified by Peptron Inc. (Daejeon, Korea).
The expression vectors were transformed into the Escherichia coli BL21(DE3)RIL cells. Cells were grown to an optical density at 600 nm (OD600) of ~0.6 at 37 °C, and expression of the GST-fused p53TAD (residues 1–73) was induced at 18 °C with 0.5 mM isopropyl-β-D-thiogalactopyranoside (IPTG) for 16 h. Harvested cells were suspended in phosphate-buffer saline (PBS) (10 mM Na2HPO4, 140 mM NaCl, and 1.8 mM KH2PO4, pH 7.5) and lysed by sonication. After cell debris was removed by centrifugation, the supernatant was loaded onto a GST column (GE healthcare). After washing with PBS, the protein was eluted by elution buffer (50 mM Tris-HCl, pH 8.0, and 15 mM glutathione) prepared freshly. After cleaved with thrombin and dialyzed against Q-buffer (20 mM sodium phosphate, pH 6.4, 50 mM NaCl, and 2 mM dithiothreitol (DTT)), the protein was loaded onto a HiTrap-Q HP column (GE-Healthcare) and eluted by a 50–1000 mM linear gradient of NaCl. […] The purity and homogeneity of the proteins were assessed using sodium dodecyl sulfate-polyacrylamide gel electrophoresis (SDS-PAGE). […]
All the NMR data were acquired using Bruker Avance II 800 and 900 spectrometers (Bruker, Billerica, MA, USA) equipped with a cryogenic probe at the Korea Basic Science Institute. […] The weighted ΔCS values for backbone ^1H and ^15N resonances were calculated by this equation: ΔCS = (Δ^1H^2 + (0.2 × Δ^15N)^2)^0.5. All NMR data were processed and analyzed using nmrPipe/nmrDraw and SPARKY 3 software (version 3, University of California, San Francisco, CA, USA, http://www.cgl.ucsf.edu/home/sparky/).

[2] = molecular target: T1, MED25 ACID; experiment: Isothermal titration calorimetry (ITC) binding to MED25 ACID; conditions: Auto-iTC200, 25 mM sodium phosphate, 100 mM NaCl, pH 7.0, 25 °C, full-length p53TAD: 600 µM MED25 ACID titrated into 20 µM p53TAD, peptides: 600 µM peptide titrated into 20 µM MED25 ACID, eighteen injections of 10 µL, one-site binding

## p53TAD1 peptide: p53TAD1 (residues 15–29) chemically synthesized peptide
[1]; 2D 1H-15N HSQC, 20 mM sodium phosphate, pH 6.5, 100 mM NaCl, 1 mM EDTA, 4 mM DTT, 10% D2O, 25 °C
  effect on 15N-labeled MED25 ACID crosspeaks (line broadening, chemical shift changes): caused the crosspeaks of MED25 ACID to significantly move
[1]; CSP mapping, ΔCS > 0.05 ppm and disappeared residues, pH 6.5, 25 °C
  binding site/surface on MED25 ACID: located on a hydrophobic groove in one face of MED25 ACID structure composed of β-strands (β4 and β7) and α1-helix
[1]; weighted ΔCS, pH 6.5, 25 °C
  rank order of degree of CSPs on MED25 ACID: full-length p53TAD > p53TAD2 > p53TAD1
[2]
  equilibrium dissociation constant (Kd) with MED25 ACID: could not be determined by ITC
